Yeast UUG start-1 = alters start codon recognition fidelity in yeast. S. cerevisiae UUG-firefly luciferase reporter, luminescence/redox ratio. 350,000 tested, 0.13% active. activity score, % at 18.7 µM. AID 602363;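 active means replicate mean at a twofold rise or more, about +100% in these data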;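 further: firefly luciferase made from a UUG start codon reports start codon fidelity; reporter light over untreated wells divided by growth signal over untreated wells; some hits fall short of that in this replicate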
CFTR F508del cor = CFTR F508del correction in bronchial cells. 0.36% of 350,000 active. activity (quench increase), % at 7.58 µM. CFBE cells, YFP halide quenching; stimulated with forskolin plus potentiator P3; % fluorescence drop versus neutral controls;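 active = mean added fluorescence quench of at least 8% versus neutral control, with both replicates also reaching 8%; inconclusive = only one of the mean or replicate conditions met; inactive = mean below 8% and not both replicates reaching 8%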;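 also: cells transiently co-express mutant CFTR-F508del with the halide-sensitive YFP; corrector assay measuring rescue of mutant channel to the surface after 24 h compound exposure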
LGR2 antag = Drosophila LGR2 receptor signaling inhibition; AID 720647; inhibition, % at 9.99 µM; HEK293 LGR2, CRE-luciferase, bursicon-stimulated, 4 h; 0.35% of 380,000 active;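 active = drop in luminescence signal, shown as inhibition above about 50% in the replicate tests, limit read from the data, passing the limit was not always enough; inconclusive = probably only some replicates passing the limit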;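 also: agonist challenge used bursicon conditioned medium at about half maximal strength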
miR-122 sensor = miR-122 inhibition in Huh7 cells; Huh7 miR-122 Renilla luciferase sensor, 48 h; neutral wells = 0, positive control = 100; activation (reporter increase), % at 12.5 µM; 0.3% of 340,000 active; AID 602342;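 active = mean replicate activation score at least 90 and every replicate individually at or above 90; inconclusive = only one of the two criteria met; inactive = neither criterion met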;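 also: higher luciferase means less miR-122 activity so hits act as miR-122 inhibitors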
PglD DTNB = PglD (C. jejuni) enzyme inhibition. purified PglD enzyme, DTNB colorimetric CoA detection. inhibition, % at 12.5 µM. 0.098% of 360,000 active. AID 602405; in the data active = inhibition above about 16%, passing the limit was not always enough; inconclusive = no clear call, values can overlap the other calls
EWS-Fli inh = blocks EWS/Fli oncoprotein-driven transcription; A673 NR0B1-luciferase reporter, viability-normalised; inhibition, % at 12.6 µM; 0.67% of 350,000 active; AID 651661;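 active = mean inhibition of at least 50% after viability correction, with every replicate also passing that limit; inconclusive = mean reaches 50% but only one of two replicates passes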;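 also: firefly luciferase signal divided by Alamar Blue viability fluorescence both relative to DMSO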
miR-27b select = alters miR-27b levels in Huh7 cells, selectivity for miR-122 inhibitors | shares compounds with miR-122 sensor | Huh7 miR-27b levels, qRT-PCR, 48 h | relative miR-27b level (unnormalised ratio), ratio at 35 µM | 35 tested, under 10 active | AID 687039;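 active = compounds lowering miR-27b whose fitted half-maximal dose is at most twice their top tested dose; inconclusive = flat curve with moderate drop, or poor fit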
Yeast UUG start-2 = modulators of start codon recognition fidelity in yeast. 540 tested, under 10 active. activation, % at 38 µM. AID 652061. shares compounds with Yeast UUG start-1. S. cerevisiae UUG-start firefly luciferase, luminescence, 4 h; 100% means double the DMSO signal;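 active = signal increase whose fitted curve reaches an absolute level of 40 at a concentration under 10 µM; inactive = activity opposite to the expected increase, or the rest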
An asterisk follows results filed as active; ? = inconclusive; / = no result; [ ] = remark or other dose. Hits are enriched below; roughly 1.3% of the tested compounds scored in any of these assays.

SMILES | Yeast UUG start-1 | CFTR F508del cor | LGR2 antag | miR-122 sensor | PglD DTNB | EWS-Fli inh | others
CCCCN=C(C)C1=C(O)CSC1=O | -8 | / | / | -3 | 3 | /
COc1ccc(C#Cc2ccc([C@@H]3[C@@H](CO)N4CCCCN(Cc5ccccc5F)C[C@H]34)cc2)cc1 | -33 | 2 | -35 | -19[16.7 µM] | -2 | 15
OC[C@H]1[C@H](c2ccc(C#CC3(O)CCCC3)cc2)[C@H]2CN(Cc3ccccc3F)CCCCN21 | 13 | 8.9* | 28 | 2[16.7 µM] | -4 | 2
OC[C@@H]1[C@@H](c2ccc(C#CC3(O)CCCC3)cc2)[C@H]2CN(Cc3ccccc3F)CCCCN12 | 12 | 8.4* | 2 | 10[16.7 µM] | 4 | 1
C[C@@H]1CN([C@@H](C)CO)C(=O)c2cc(NS(C)(=O)=O)ccc2O[C@@H](C)CCCCO[C@@H]1CN(C)C(=O)Nc1ccc2c(c1)OCO2 | 0 | -2 | / | 1[16.7 µM] | -2 | -11
CCOc1ccc(CC(=N)C2=C(O)CC(C)(C)CC2=O)cc1OCC | -4 | / | 8 | 133* | -2 | /
CCOC(=O)C1=C(c2ccccc2)NC(=O)NC1c1ccc(O)c(Cl)c1 (configuration not stated) | -5 | 3 | 6 | 3 | 3 | 68*
CCOC(=O)C1=C(c2ccccc2)NC(=O)NC1c1ccc(O)c(OCC)c1 (configuration not stated) | -9 | 0 | -4 | -6 | 4 | -5
CCC(C)Oc1cc(-c2ccnc(Nc3cccc(Cl)c3)n2)ccn1 (configuration not stated) | -12 | 0 | 84* | / | 2 | 25
Cc1cc(C)nc(Nc2cccc(Cl)c2)n1 | -13 | 2 | -5 | 6 | -5 | -36
OCCCNc1cc(-c2ccnc(Nc3cccc(Cl)c3)n2)ccn1 | -5 | -7 | 102* | / | -3 | -14
Cc1ccc2cc(CN(CC3CCCO3)C(=S)Nc3ccccc3)c(=O)[nH]c2c1 (configuration not stated) | / | 6 | 17 | / | / | 11
CC(C)[C@H](CO)NC(=O)[C@H]1O[C@@H](n2ccc(N)nc2=O)[C@H](O)[C@@H]1O | -16 | -3 | 1 | -4 | 1 | 1
Nc1ccn([C@@H]2O[C@H](C(=O)NCC(F)(F)F)[C@@H](O)[C@H]2O)c(=O)n1 | -13 | 10* | 14 | -5 | 4 | -10
CCCCSc1nnc(-c2ccccc2N)c(=O)[nH]1 | -13 | 1 | -74 | / | -3 | -90
CCCCCCCSc1nnc(-c2ccccc2N)c(=O)[nH]1 | -9 | -1 | 1 | 7 | 7 | 56*
Cc1ccc(NS(=O)(=O)c2cc(C(=O)NCc3ccccn3)ccc2Cl)cc1C | -21 | / | 0 | 101* | -1 | / | miR-27b select=0.97
Cc1ccc(C)c(NS(=O)(=O)c2cc(C(=O)NCc3ccccn3)ccc2Cl)c1 | -26 | / | / | 75 | -5 | /
CCCCNS(=O)(=O)c1ccc2nc(-c3cccnc3)cc(C(=O)NC(C)CC)c2c1 (configuration not stated) | -5 | 0 | -1 | ? | -1 | -1 | miR-27b select=0.57
CCCCNS(=O)(=O)c1ccc2nc(-c3cccnc3)cc(C(=O)NC(C)C)c2c1 | -1 | 0 | -16 | 69 | 1 | 3
Cc1cc(C)c(S(=O)(=O)NC2CC3CCC2C3)c(C)c1 (configuration not stated) | -22 | -1 | 3 | 125* | 5 | 1 | miR-27b select=0.47
CC(=O)Nc1ccc(S(=O)(=O)NC2CC3CCC2C3)cc1 (configuration not stated) | -6 | -1 | -2 | 31 | 5 | 9
COc1cccc(C2=CC(=O)C[C@H](c3ccc(Cl)cc3)C2)c1OC | -18 | -1 | -12 | -2 | 2 | 6
COc1cccc(N2CCN(C(=O)c3oc4ccccc4c3NC(=O)CCc3cc(OC)no3)CC2)c1 | -5 | -1 | 0 | ? | 4 | / | miR-27b select=0.64
O=S(=O)(Nc1cccc2[nH]ncc12)c1ccc(F)c2ncccc12 | / | / | / | / | / | / | miR-27b select=0.89

Taken from the listing (2 entries):
SMILES | Yeast UUG start-1 | CFTR F508del cor | LGR2 antag | miR-122 sensor | PglD DTNB | EWS-Fli inh | others
CCCCN=C(C)C1=C(O)CSC1=O | -8 | / | / | -3 | 3 | /
COc1ccc(C#Cc2ccc([C@@H]3[C@@H](CO)N4CCCCN(Cc5ccccc5F)C[C@H]34)cc2)cc1 | -33 | 2 | -35 | -19[16.7 µM] | -2 | 15

Part of the list above in order of heavy-atom count, largest number first.
SMILES | Yeast UUG start-1 | CFTR F508del cor | LGR2 antag | miR-122 sensor | PglD DTNB | EWS-Fli inh | others
CCCCNS(=O)(=O)c1ccc2nc(-c3cccnc3)cc(C(=O)NC(C)C)c2c1 | -1 | 0 | -16 | 69 | 1 | 3
CCOC(=O)C1=C(c2ccccc2)NC(=O)NC1c1ccc(O)c(OCC)c1 (configuration not stated) | -9 | 0 | -4 | -6 | 4 | -5
CCOC(=O)C1=C(c2ccccc2)NC(=O)NC1c1ccc(O)c(Cl)c1 (configuration not stated) | -5 | 3 | 6 | 3 | 3 | 68*

Further compounds:
SMILES | Yeast UUG start-1 | CFTR F508del cor | LGR2 antag | miR-122 sensor | PglD DTNB | EWS-Fli inh | others
O=C1C=C(NC2CCCC2)CC(c2ccccc2)C1 (configuration not stated) | / | -3 | / | 7 | / | 3
COc1ccc(C(CNC(=O)c2oc3ccc(C)cc3c2C)N2CCCCC2)cc1 (configuration not stated) | -33 | -2 | 4 | / | -3 | 21
CC1CCCCN1C(=O)c1cc2nc(-c3ccccc3)cc(-c3ccccc3)n2n1 (configuration not stated) | -7 | / | / | 121* | 8 | / | miR-27b select=0.9
CCOc1cc(C)c(S(=O)(=O)NC2CCCCC2)cc1C | -8 | / | / | 198* | 16 | / | miR-27b select=0.91
CNC[C@H]1Oc2ccc(NC(=O)c3ccncc3)cc2C(=O)N([C@@H](C)CO)C[C@H]1C | -13 | 0 | 24 | -12[16.7 µM] | -1 | 13
Cc1ccc(S(=O)(=O)N2CCOCC2)cc1C(=O)NC1CCCCCC1 | 15 | 1 | -6 | -3 | 3 | -2
Cc1ccc(S(=O)(=O)N2CCOCC2)cc1C(=O)OC(C)C(=O)NC1CCCC1 (configuration not stated) | 119* | 0 | 4 | / | 2 | 0 | Yeast UUG start-2=-5
Cn1c(NCc2ccccc2F)nc2cc(-c3cccc(Cl)c3)sc2c1=O | -15 | 0 | -11 | -3 | -1 | 2
O=C(CNC(=O)c1cc(=O)[nH]c2ccc(S(=O)(=O)N3CCOCC3)cc12)Nc1ccc(F)c(F)c1 | 108* | 0 | -8 | 0 | / | -7 | Yeast UUG start-2=12
COc1ccccc1C#Cc1ccc([C@@H]2[C@H](C#N)N(C(=O)C3CC3)[C@H]2CO)cc1 | / | 3 | -3 | / | -1 | -14
Cc1ccc(S(=O)(=O)N(C)C[C@@H]2Oc3c(NS(=O)(=O)c4c(C)noc4C)cccc3C(=O)N([C@@H](C)CO)C[C@@H]2C)cc1 | -3 | 1 | 2 | 0[16.7 µM] | 2 | 3
C=C(C)C(=O)Nc1ccc(OC(F)(F)C(F)F)c(NC(=O)C(=C)C)c1 | 635* | / | / | 1 | 4 | / | Yeast UUG start-2=-6
CCN(CC)CCNC(=O)Cc1nn(Cc2ccccc2)c(=O)c2ccccc12 | -18 | -1 | 18 | 2 | -4 | 1 | Yeast UUG start-2=-8
COC(=O)c1c(=O)n(O)c2ccc(OC)cc2[n+]1[O-] | / | / | / | -6 | / | /
COc1cccc(-n2c(SCC(=O)NCC3CCCO3)nc3c([nH]c4ccccc43)c2=O)c1 (configuration not stated) | -23 | 0 | -11 | 8 | -1 | 10
